This passage reports IC50 results from patent publication US10189836B2, “Therapeutic compounds, compositions and methods of use thereof” (Genentech, Inc., priority 2015, dated 2019).

Usually IC50 stands for the concentration that inhibits the measured activity by half. Lower therefore signals greater potency.

Molecules are shown by their SMILES. Where only a bound is given, the exact number is not on record here.

The subject of the test is JAK1-dependent STAT6 phosphorylation downstream of IL-13 stimulation in BEAS-2B cells.
Compound `CN1CCN(C(=O)Cn2cc(Nc3nc4c(N5CC6CCC(C5)N6C(=O)c5cccc(Cl)c5)cccn4n3)cn2)CC1` [Example 90, 2-[4-[[8-[8-(3-chlorobenzoyl)-3,8-diazabicyclo[3.2.1]octan-3-yl]-[1,2,4]triazolo[1,5-a]pyridin-2-yl]amino]pyrazol-1-yl]-1-(4-methylpiperazin-1-yl)ethanone] displayed an IC50 of 37.3 nM. The result for `CN1CCN(C(=O)Cn2cc(Nc3nc4c(N5CC6CCC(C5)N6C(=O)CC5CC(F)(F)C5(F)F)cccn4n3)cn2)CC1` (stereo not drawn) [Example 91, 1-[3-[2-[[1-[2-(4-methylpiperazin-1-yl)-2-oxo-ethyl]pyrazol-4-yl]amino]-[1,2,4]triazolo[1,5-a]alpyridin-8-yl]-3,8-diazabicyclo[3.2.1]octan-8-yl]-2(2,2,3,3-tetrafluorocyclobutyl) ethanone] reads 39.2 nM; that for `CN1CCN(C(=O)Cn2cc(Nc3nc4c(N5CC6CCC(C5)N6C(=O)C5CC(C#N)C5)cccn4n3)cn2)CC1` (stereo not drawn) [Example 92, 3-[3-[2-[[1-[2-(4-methylpiperazin-1-yl)-2-oxo-ethyl]pyrazol-4-yl]amino]-[1,2,4]triazolo[1,5-a]pyridin-8-yl]-3,8-diazabicyclo[3.2.1]octane-8-carbonyl]cyclo-butanecarbonitrile], 179 nM; that for `CN1CCN(C(=O)Cn2cc(Nc3nc4c(N5CC6CCC(C5)N6S(=O)(=O)c5ccc(Cl)cc5)cccn4n3)cn2)CC1` [Example 93, 2-[4-[[8-[8-(4-chlorophenyl)sulfonyl-3,8-diazabicyclo[3.2.1]octan-3-yl]-[1,2,4]triazolo[1,5-a]pyridin-2-yl]amino]pyrazol-1-yl]-1-(4-methylpiperazin-1-yl)ethanone], 14.1 nM. Under `O=C(Cn1cc(Nc2nc3c(N4CC5CCC(C4)N5C(=O)N4CC(C(F)(F)F)C4)cccn3n2)cn1)N1CCN(C2CSC2)CC1` [Example 94, 1-[4-(thietan-3-yl)piperazin-1-yl]-2-[4-[[8-[8-[3-(trifluoromethyl)azetidine-1-carbonyl]-3,8-diazabicyclo[3.2.1]octan-3-yl]-[1,2,4]triazolo[1,5-a]pyridin-2-yl]amino]pyrazol-1-yl]ethanone] stands 54.9 nM; under `CN1CCN(C(=O)Cn2cc(Nc3nc4c(N5C[C@H]6CC[C@@H](C5)[C@H]6OCc5cnn(C)c5)cccn4n3)cn2)CC1` [Example 95, 1-(4-methylpiperazin-1-yl)-2-[4-[[8-[(1S,5R)-8-[(1-methylpyrazol-4-yl)methoxy]-3-azabicyclo[3.2.1]octan-3-yl]-[1,2,4]triazolo[1,5-a]pyridin-2-yl]amino]pyrazol-1-yl]ethanone], 98.8 nM; under `CN1CCN(C(=O)Cn2cc(Nc3nc4c(N5CC6CCCC(C5)N6C(=O)C5CSC5)cccn4n3)cn2)CC1` [Example 96, 1-(4-methylpiperazin-1-yl)-2-[4-[[8-[9-(thietane-3-carbonyl)-3,9-diazabicyclo[3.3.1]nonan-3-yl]-[1,2,4]triazolo[1,5-a]pyridin-2-yl]amino]pyrazol-1-yl]ethanone], 17.8 nM.

With `CN1CCN(C(=O)Cn2cc(Nc3nc4c(N5CC6CCCC(C5)N6C(=O)CC5CC(F)(F)C5)cccn4n3)cn2)CC1` [Example 97, 2-(3,3-difluorocyclobutyl)-1-[3-[2-[[1-[2-(4-methylpiperazin-1-yl)-2-oxo-ethyl]pyrazol-4-yl]amino]-[1,2,4]triazolo[1,5-a]pyridin-8-yl]-3,9-diazabicyclo[3.3.1]nonan-9-yl]ethanone], 32.5 nM corresponded to half-maximal inhibition (IC50). The result for `CN1CCN(C(=O)Cn2cc(Nc3nc4c(N5CC6CCC(C5)N6CC(F)(F)F)cccn4n3)cn2)CC1` [Example 98, 1-(4-methylpiperazin-1-yl)-2-[4-[[8-[8-(2,2,2-trifluoroethyl)-3,8-diazabicyclo[3.2.1]octan-3-yl]-[1,2,4]triazolo[1,5-a]pyridin-2-yl]amino]pyrazol-1-yl]ethanone] reads 78 nM. Under `CSc1ccc(C(=O)N2C3CCC2CN(c2cccn4nc(Nc5cnn(CC(=O)N6CCN(C)CC6)c5)nc24)C3)cc1` [Example 99, 1-(4-methylpiperazin-1-yl)-2-[4-[[8-[8-(4-methylsulfanylbenzoyl)-3,8-diazabicyclo[3.2.1]octan-3-yl]-[1,2,4]triazolo[1,5-a]pyridin-2-yl]amino]pyrazol-1-yl]ethanone] stands 102 nM. As to `CSc1cccc(C(=O)N2C3CCC2CN(c2cccn4nc(Nc5cnn(CC(=O)N6CCN(C)CC6)c5)nc24)C3)c1` [Example 100, 1-(4-methylpiperazin-1-yl)-2-[4-[[8-[8-(3-methylsulfanylbenzoyl)-3,8-diazabicyclo[3.2.1]octan-3-yl]-[1,2,4]triazolo[1,5-a]pyridin-2-yl]amino]pyrazol-1-yl]ethanone], the IC50 is 109 nM.

Regarding `CN1CCN(C(=O)Cn2cc(Nc3nc4c(N5CC6CCC(C5)N6Cc5cnc(CC(F)(F)F)s5)cccn4n3)cn2)CC1` [Example 101, 1-(4-methylpiperazin-1-yl)-2-[4-[[8-[8-[[2-(2,2,2-trifluoroethyl)thiazol-5-yl]methyl]-3,8-diazabicyclo[3.2.1]octan-3-yl]-[1,2,4]triazolo[1,5-a]pyridin-2-yl]amino]pyrazol-1-yl]ethanone], the midpoint of inhibition, the IC50, lay at 414 nM. Compound `CN1CCN(C(=O)Cn2cc(Nc3nc4c(N5CC6CCC(C5)N6C(=O)CC(N)C(F)(F)F)cccn4n3)cn2)CC1` (stereo not drawn) [Example 102, 3-amino-4,4,4-trifluoro-1-[3-[2-[[1-[2-(4-methylpiperazin-1-yl)-2-oxo-ethyl]pyrazol-4-yl]amino]-[1,2,4]triazolo[1,5-a]pyridin-8-yl]-3,8-diazabicyclo[3.2.1]octan-8-yl]butan-1-one] yielded an IC50 of 420 nM.

`CC(C(=O)N1CCN(C)CC1)n1cc(Nc2nc3c(N4CC5CCC(C4)N5C(=O)CCC(F)(F)F)cccn3n2)cn1` (stereo not drawn) [Example 103, 4,4,4-trifluoro-1-[3-[2-[[1-[1-methyl-2-(4-methylpiperazin-1-yl)-2-oxo-ethyl]pyrazol-4-yl]amino]-[1,2,4]triazolo[1,5-a]pyridin-8-yl]-3,8-diazabicyclo[3.2.1]octan-8-yl]butan-1-one] registered an IC50 of 40 nM. In turn, `CC(C(=O)N1CCN(C)CC1)n1cc(Nc2nc3c(N4CC5CCC(C4)N5C(=O)CCC(F)(F)F)cccn3n2)cn1` (stereo not drawn) [Example 104, 4,4,4-trifluoro-1-[3-[2-[[1-[1-methyl-2-(4-methylpiperazin-1-yl)-2-oxo-ethyl]pyrazol-4-yl]amino]-[1,2,4]triazolo[1,5-a]pyridin-8-yl]-3,8-diazabicyclo[3.2.1]octan-8-yl]butan-1-one] gave an IC50 of 66.9 nM. Under `CC(C(=O)N1CCN(C)CC1)n1cc(Nc2nc3c(N4CC5CCCC(C4)N5C(=O)CCC(F)(F)F)cccn3n2)cn1` (stereo not drawn) [Example 105, 4,4,4-trifluoro-1-[3-[2-[[1-[1-methyl-2-(4-methylpiperazin-1-yl)-2-oxo-ethyl]pyrazol-4-yl]amino]-[1,2,4]triazolo[1,5-a]pyridin-8-yl]-3,9-diazabicyclo[3.3.1]nonan-9-yl]butan-1-one] stands 41.2 nM; under `CC(C(=O)N1CCN(C)CC1)n1cc(Nc2nc3c(N4CC5CCCC(C4)N5C(=O)CCC(F)(F)F)cccn3n2)cn1` (stereo not drawn) [Example 106, 4,4,4-trifluoro-1-[3-[2-[[1-[1-methyl-2-(4-methylpiperazin-1-yl)-2-oxo-ethyl]pyrazol-4-yl]amino]-[1,2,4]triazolo[1,5-a]pyridin-8-yl]-3,9-diazabicyclo[3.3.1]nonan-9-yl]butan-1-one], 46.2 nM.

For the compound `CSc1ccc(S(=O)(=O)N2C3CCC2CN(c2cccn4nc(Nc5cnn(CC(=O)N6CCN(C)CC6)c5)nc24)C3)cc1` [Example 107, 1-(4-methylpiperazin-1-yl)-2-[4-[[8-[8-(4-methylsulfanylphenyl)-sulfonyl-3,8-diazabicyclo[3.2.1]octan-3-yl]-[1,2,4]triazolo[1,5-a]pyridin-2-yl]amino]pyrazol-1-yl]ethanone], the IC50 amounted to 27.4 nM. `CN1CCN(C(=O)Cn2cc(Nc3nc4c(N5CC6CCC(C5)N6S(=O)(=O)Cc5ccccc5)cccn4n3)cn2)CC1` [Example 108, 2-[4-[[8-(8-benzylsulfonyl-3,8-diazabicyclo[3.2.1]octan-3-yl)-[1,2,4]triazolo[1,5-a]pyridin-2-yl]amino]pyrazol-1-yl]-1-(4-methylpiperazin-1-yl)ethanone] had an IC50 of 119 nM. For the compound `CN1CCN(C(=O)Cn2cc(Nc3nc4c(N5CC6CCC(C5)N6CC5(CS(C)(=O)=O)CC5)cccn4n3)cn2)CC1` [Example 109, 1-(4-methylpiperazin-1-yl)-2-[4-[[8-[8-([1-(methylsulfonylmethyl)cyclopropyl]methyl]-3,8-diazabicyclo[3.2.1]octan-3-yl]-[1,2,4]triazolo[1,5-a]pyridin-2-yl]amino]pyrazol-1-yl]ethanone], the IC50 was greater than 1000 nM. The result for `CN1CCN(C(=O)Cn2cc(Nc3nc4c(N5CC6CCC(C5)N6C(=O)NCC(F)(F)F)cccn4n3)cn2)CC1` [Example 110, 3-[2-[[1-[2-(4-methylpiperazin-1-yl)-2-oxo-ethyl]pyrazol-4-yl]amino]-[1,2,4]triazolo[1,5-a]pyridin-8-yl]-N-(2,2,2-trifluoroethyl)-3,8-diazabicyclo[3.2.1]octane-8-carboxamide] reads 138 nM; that for `CN1CCN(C(=O)Cn2cc(Nc3nc4c(N5CC6CCC(C5)N6S(=O)(=O)c5ccccc5Cl)cccn4n3)cn2)CC1` [Example 111, 2-[4-[[8-[8-(2-chlorophenyl)sulfonyl-3,8-diazabicyclo[3.2.1]octan-3-yl]-[1,2,4]triazolo[1,5-a]pyridin-2-yl]amino]pyrazol-1-yl]-1-(4-methylpiperazin-1-yl)ethanone], 21.4 nM. Under `CN1CCN(C(=O)Cn2cc(Nc3nc4c(N5CC6CCC(C5)N6S(=O)(=O)c5cccs5)cccn4n3)cn2)CC1` [Example 112, 1-(4-methylpiperazin-1-yl)-2-[4-[[8-[8-(2-thienylsulfonyl)-3,8-diazabicyclo[3.2.1]octan-3-yl]-[1,2,4]triazolo[1,5-a]pyridin-2-yl]amino]pyrazol-1-yl]ethanone] stands 25 nM; under `CN1CCN(C(=O)Cn2cc(Nc3nc4c(N5CC6CCC(C5)N6c5ccc(Cl)cc5)cccn4n3)cn2)CC1` [Example 113, 2-[4-[[8-[8-(4-chlorophenyl)-3,8-diazabicyclo[3.2.1]octan-3-yl]-[1,2,4]triazolo[1,5-a]pyridin-2-yl]amino]pyrazol-1-yl]-1-(4-methylpiperazin-1-yl)ethanone], 15.8 nM.
